Here are results for one compound from paper PMC12692169, “Identification of Novel TAT-I24-Related Peptides with Antiviral Activities” (International Journal of Molecular Sciences, 2025).

Residues, ends and D or L forms follow the SMILES beside them.

The test system of this test is plasmid-DNA (dsDNA). As to the kind of experiment: Fluorescence-based dsDNA-binding assay (SYBR Gold, plasmid DNA). The note with it: TAT-I24 as reference, three independent experiments in duplicates.

Take `CC(C)C[C@H](NC(=O)[C@H](Cc1ccccc1)NC(=O)[C@H](CS)NC(=O)[C@H](Cc1ccccc1)NC(=O)[C@@H]1CCCN1C(=O)[C@H](CO)NC(=O)[C@H](CCC(N)=O)NC(=O)[C@@H]1CCCN1C(=O)[C@@H]1CCCN1C(=O)[C@H](CCCNC(=N)N)NC(=O)[C@H](CCCNC(=N)N)NC(=O)[C@H](CCCNC(=N)N)NC(=O)[C@H](CCC(N)=O)NC(=O)[C@H](CCCNC(=N)N)NC(=O)[C@H](CCCNC(=N)N)NC(=O)[C@H](CCCCN)NC(=O)[C@H](CCCCN)NC(=O)[C@H](CCCNC(=N)N)NC(=O)CN)C(=O)N[C@@H](C)C(=O)N[C@@H](Cc1ccccc1)C(=O)N[C@@H](CS)C(=O)N[C@@H](Cc1ccccc1)C(=O)O` [TAT-T7] (H-GRKKRRQRRRPPQSPFCFLAFCF-OH; N-terminus and C-terminus assumed): the “dsDNA-binding (reduction in SYBR Gold fluorescence)” value is given as “reduced dsDNA-binding compared to TAT-I24”.
